Patent US20250155433A1, “FLUORESCENT SENSORS FOR DETECTION OF SIDEROPHORES AND OTHER MOLECULES PRODUCED BY BACTERIAL PATHOGENS” (Kansas State University Research Foundation, priority 2021, published 2025)
pKd: −log10 of the molar value.

The chains behind the UniProt entries cited, without tags or fusion partners. Where a name states a change or a piece, a line headed by the entry shows the natural chain unless it says otherwise.
UniProt D0C8V9: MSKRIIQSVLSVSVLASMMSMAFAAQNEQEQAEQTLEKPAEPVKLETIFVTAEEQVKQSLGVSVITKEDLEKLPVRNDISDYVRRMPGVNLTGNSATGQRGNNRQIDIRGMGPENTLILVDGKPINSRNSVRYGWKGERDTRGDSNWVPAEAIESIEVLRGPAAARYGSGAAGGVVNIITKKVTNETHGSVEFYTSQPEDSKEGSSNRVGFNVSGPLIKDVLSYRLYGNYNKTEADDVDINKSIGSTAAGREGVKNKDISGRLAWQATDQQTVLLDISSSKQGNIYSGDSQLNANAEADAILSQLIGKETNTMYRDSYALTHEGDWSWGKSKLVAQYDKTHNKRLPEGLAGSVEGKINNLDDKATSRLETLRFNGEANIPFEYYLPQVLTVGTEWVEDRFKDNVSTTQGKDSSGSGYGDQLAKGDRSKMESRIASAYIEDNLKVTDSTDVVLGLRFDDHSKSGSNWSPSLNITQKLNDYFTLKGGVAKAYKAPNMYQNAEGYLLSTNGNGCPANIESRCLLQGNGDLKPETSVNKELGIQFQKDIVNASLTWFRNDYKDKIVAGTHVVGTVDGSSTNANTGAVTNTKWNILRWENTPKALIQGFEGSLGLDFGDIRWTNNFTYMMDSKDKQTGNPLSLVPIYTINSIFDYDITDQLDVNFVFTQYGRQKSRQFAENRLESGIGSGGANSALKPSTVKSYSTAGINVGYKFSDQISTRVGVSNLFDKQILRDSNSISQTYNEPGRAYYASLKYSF

Target: T1, AbaPirA (Acinetobacter baumannii, UniProt D0C8V9)
T1 construct: fused on or other part: EcoFepA signal peptide in place of its own (cleaved on export); fluorescein maleimide on the engineered Cys
Format: binding
Conditions: read-out: Affinity (KD) of sensor AbaPirA, apo siderophore; apo (parenthetic value); S328C

`O=C(N[C@H]1COC(=O)[C@@H](NC(=O)c2cccc(O)c2O)COC(=O)[C@@H](NC(=O)c2cccc(O)c2O)COC1=O)c1cccc(O)c1O` [Ent, enterobactin] showed a pKd of 5.14.
